Where two headings read alike, the source gives them in different places.
Legend:
hP2Y14R = target: T1, hP2Y14R (Homo sapiens, UniProt Q15391); assay: Inhibition of fluorescent antagonist binding in whole hP2Y14R-expressing CHO cells (flow cytometry)
T1 construct: expressed in transfected cells; host or cells: CHO cells
T1 sequence (Q15391 1-338): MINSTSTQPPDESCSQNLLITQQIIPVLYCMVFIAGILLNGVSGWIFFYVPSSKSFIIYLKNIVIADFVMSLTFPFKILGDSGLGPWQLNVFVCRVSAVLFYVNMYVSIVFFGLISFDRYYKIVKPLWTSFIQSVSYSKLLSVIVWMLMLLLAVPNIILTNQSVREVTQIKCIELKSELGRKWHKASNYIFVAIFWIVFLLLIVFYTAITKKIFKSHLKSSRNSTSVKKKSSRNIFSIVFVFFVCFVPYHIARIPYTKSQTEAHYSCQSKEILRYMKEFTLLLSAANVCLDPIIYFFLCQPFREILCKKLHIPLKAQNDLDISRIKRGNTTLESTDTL

Protein sequences, listed by entry. Tags and fused reporters are not part of them. Lines headed by an entry give the natural chain unless they say otherwise; changes in a name come on top.
UniProt P08684, whole entry: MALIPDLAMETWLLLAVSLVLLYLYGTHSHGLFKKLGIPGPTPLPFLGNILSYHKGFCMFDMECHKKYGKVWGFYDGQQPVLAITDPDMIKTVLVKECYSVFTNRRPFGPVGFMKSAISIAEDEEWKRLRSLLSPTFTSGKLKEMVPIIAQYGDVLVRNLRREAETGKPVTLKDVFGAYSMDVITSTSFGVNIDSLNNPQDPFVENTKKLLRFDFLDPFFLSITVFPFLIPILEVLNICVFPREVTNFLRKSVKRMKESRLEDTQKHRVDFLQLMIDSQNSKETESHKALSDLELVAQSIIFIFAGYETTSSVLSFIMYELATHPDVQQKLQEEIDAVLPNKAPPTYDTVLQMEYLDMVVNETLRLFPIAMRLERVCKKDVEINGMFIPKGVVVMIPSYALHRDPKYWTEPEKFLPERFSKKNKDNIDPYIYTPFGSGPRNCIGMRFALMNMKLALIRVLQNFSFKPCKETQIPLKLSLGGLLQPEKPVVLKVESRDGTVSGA
UniProt P05177, whole entry: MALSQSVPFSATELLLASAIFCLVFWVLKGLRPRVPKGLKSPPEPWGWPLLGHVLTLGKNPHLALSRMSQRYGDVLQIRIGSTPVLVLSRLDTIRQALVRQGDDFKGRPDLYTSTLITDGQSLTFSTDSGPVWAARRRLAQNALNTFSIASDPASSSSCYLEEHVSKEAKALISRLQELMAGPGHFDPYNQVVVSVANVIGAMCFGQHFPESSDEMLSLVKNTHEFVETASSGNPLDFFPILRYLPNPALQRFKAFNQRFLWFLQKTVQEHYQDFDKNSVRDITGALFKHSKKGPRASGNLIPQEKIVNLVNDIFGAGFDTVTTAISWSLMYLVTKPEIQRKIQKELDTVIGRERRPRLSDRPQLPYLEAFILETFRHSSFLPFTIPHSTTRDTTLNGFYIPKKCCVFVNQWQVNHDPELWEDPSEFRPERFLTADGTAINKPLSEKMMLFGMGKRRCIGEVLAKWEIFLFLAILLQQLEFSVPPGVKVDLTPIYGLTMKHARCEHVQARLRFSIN
UniProt Q12809: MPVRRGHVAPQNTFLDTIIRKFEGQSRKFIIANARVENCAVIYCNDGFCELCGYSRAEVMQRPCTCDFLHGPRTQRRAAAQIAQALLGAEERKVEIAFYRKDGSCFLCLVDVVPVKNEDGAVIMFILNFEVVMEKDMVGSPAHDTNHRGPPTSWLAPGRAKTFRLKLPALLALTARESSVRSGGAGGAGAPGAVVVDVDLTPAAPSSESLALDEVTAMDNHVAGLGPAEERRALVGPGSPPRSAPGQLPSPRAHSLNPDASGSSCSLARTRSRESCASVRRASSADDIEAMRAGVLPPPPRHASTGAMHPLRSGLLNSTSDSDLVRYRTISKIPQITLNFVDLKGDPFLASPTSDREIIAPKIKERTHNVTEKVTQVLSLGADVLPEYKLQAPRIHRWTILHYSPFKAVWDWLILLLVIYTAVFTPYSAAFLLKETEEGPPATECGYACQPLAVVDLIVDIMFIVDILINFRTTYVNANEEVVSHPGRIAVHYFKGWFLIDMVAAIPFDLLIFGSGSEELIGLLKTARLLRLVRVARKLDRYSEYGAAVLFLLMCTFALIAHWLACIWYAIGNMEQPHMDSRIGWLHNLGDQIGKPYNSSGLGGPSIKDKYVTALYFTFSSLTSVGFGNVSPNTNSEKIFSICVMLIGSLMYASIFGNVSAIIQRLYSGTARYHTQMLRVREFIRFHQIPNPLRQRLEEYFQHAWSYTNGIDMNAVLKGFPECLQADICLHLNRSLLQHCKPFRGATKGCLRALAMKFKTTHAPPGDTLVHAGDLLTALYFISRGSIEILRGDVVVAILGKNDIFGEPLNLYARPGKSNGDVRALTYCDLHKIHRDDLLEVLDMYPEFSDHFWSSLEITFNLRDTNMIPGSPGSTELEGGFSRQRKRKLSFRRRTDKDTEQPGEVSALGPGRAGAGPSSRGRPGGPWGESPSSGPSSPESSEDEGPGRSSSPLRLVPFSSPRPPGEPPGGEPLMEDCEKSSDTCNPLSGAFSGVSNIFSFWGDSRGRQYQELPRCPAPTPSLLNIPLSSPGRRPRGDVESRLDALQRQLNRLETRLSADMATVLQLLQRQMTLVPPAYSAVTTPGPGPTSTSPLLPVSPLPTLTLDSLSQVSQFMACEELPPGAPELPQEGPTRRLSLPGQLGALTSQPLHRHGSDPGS

[1] = rat; Table 7; Jung et al. 2020; cited from earlier work
CYP3A4 = CYP3A4 (Homo sapiens, UniProt P08684); details: Table 7; Jung et al. 2020; cited from earlier work
[2] = Table 7; Jung et al. 2020; cited from earlier work
CYP1A2 = CYP1A2 (Homo sapiens, UniProt P05177); details: Table 7; Jung et al. 2020; cited from earlier work
[3] = Table 7; Jung et al. 2020; cited from earlier work; remark: listed apart in the source
hERG = hERG (Homo sapiens, UniProt Q12809); details: fluorescent method; Table 7; Jung et al. 2020; cited from earlier work
[4] = Table 1, fluorescent antagonist 2, hP2Y14R-CHO cells, 3-4 determinations, read-out: IC50, hP2Y14R (μM, mean ± SEM)

O=C(O)c1cc(-c2ccc(-c3nn[nH]n3)cc2)cc(-n2cc(-c3ccc(C(F)(F)F)cc3)nn2)c1 [Compound 31, 4′-(2H-Tetrazol-5-yl)-5-(4-(4-(trifluoromethyl)phenyl)-1H-1,2,3-triazol-1-yl)-[1,1′-biphenyl]-3-carboxylic acid]
IC50 (hP2Y14R; [4]): 0.895 ± 0.122 µM

O=C(O)c1cc(-c2ccc(C3CCNC3)cc2)c2ccc(-c3ccc(C(F)(F)F)cc3)cc2c1 (racemic) [Compound 105, 4-(4-(Pyrrolidin-3-yl)phenyl)-7-(4-(trifluoromethyl)phenyl)-2-naphthoic acid]
IC50 (hP2Y14R): 0.0315 ± 0.0042 µM

O=C(O)c1cc(-n2cc(-c3ccc(C(F)(F)F)cc3)nn2)cc(-c2ccc(C3CCNCC3)cc2)n1 [Compound 36, 6-(4-(Piperidin-4-yl)phenyl)-4-(4-(4-(trifluoromethyl)phenyl)-1H-1,2,3-triazol-1-yl)picolinic acid]
IC50 (hP2Y14R; [4]): 2.92 ± 0.31 µM

O=C(O)c1cc(-c2ccc(C34CCN(CC3)CC4)cc2)c2ccc(-c3ccc(C(F)(F)F)cc3)cc2c1 [Compound 4]
Plasma stability (% remaining at 120 min) [1]: 79.9%
IC50 (CYP3A4): 3.29 µM
Simulated intestinal fluid (% remaining at 120 min) [2]: 99.7%
IC50 (CYP1A2): 8.69 µM
Simulated gastric fluid (% remaining at 120 min) [3]: 74.2%
IC50 (hERG): 16.4 µM

O=C(O)c1cc(-c2ccc(C3CCNCC3)cc2)nc(-n2cc(-c3ccc(C(F)(F)F)cc3)nn2)c1 [Compound 35, 2-(4-(Piperidin-4-yl)phenyl)-6-(4-(4-(trifluoromethyl)phenyl)-1H-1,2,3-triazol-1-yl)isonicotinic acid]
IC50 (hP2Y14R; [4]): 4.9 ± 0.54 µM

O=C(O)c1cc(-c2ccc(C3=CC4CCC(C3)N4)cc2)c2ccc(-c3ccc(C(F)(F)F)cc3)cc2c1 (centres unmarked) [Compound 128, 4-(4-(8-Azabicyclo[3.2.1]oct-2-en-3-yl)phenyl)-7-(4-(trifluoromethyl)phenyl)-2-naphthoic acid]
IC50 (hP2Y14R; Table 2, whole hP2Y14R-CHO cells, 20 nM fluorescent antagonist 3, mean+SEM, n = 3-6, read-out: IC50): 0.0349 ± 0.0038 µM

Source: patent publication US20240150290A1, “HETEROCYCLIC P2Y14 RECEPTOR ANTAGONISTS” (priority 2021, published 2024)
